This is an account of results in BindingDB's records for doi:10.1021/jm049600p (Saarland University, 2005).

The target in this test is T1, Cytochrome P450 11B1, mitochondrial (Homo sapiens, UniProt P15538).
T1 sequence (P15538 whole entry): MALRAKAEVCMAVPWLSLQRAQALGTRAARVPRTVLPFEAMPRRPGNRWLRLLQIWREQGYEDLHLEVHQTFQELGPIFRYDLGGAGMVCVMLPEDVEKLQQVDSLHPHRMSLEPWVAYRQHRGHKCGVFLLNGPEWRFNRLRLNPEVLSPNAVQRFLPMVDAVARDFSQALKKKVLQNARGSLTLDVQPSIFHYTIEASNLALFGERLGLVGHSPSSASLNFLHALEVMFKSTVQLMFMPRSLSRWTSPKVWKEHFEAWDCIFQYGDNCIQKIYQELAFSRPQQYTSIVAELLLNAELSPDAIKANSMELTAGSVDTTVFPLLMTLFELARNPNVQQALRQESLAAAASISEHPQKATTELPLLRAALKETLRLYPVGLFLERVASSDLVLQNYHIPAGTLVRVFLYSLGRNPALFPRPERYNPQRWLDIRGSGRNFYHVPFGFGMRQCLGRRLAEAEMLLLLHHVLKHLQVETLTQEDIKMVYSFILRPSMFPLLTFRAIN
The experiment in a line: CYP11B Assay. Particulars: IC50 (nM). As for the experimental part:
The enzyme activity was assayed by monitoring the conversion of deoxycorticosterone to corticosterone in the presence of inhibitor compounds. The product formation was monitored by HPTLC using a phosphoimager system.

By IC50 is commonly meant the concentration that gives 50% inhibition. Low values mean greater potency, high ones weaker potency. Take `N#Cc1ccc2c(c1)CCC2=Cc1cnc[nH]1` [Imidazolylmethyleneindane 5b]: the IC50 came to 12.3 nM.
